## scFv variants of Ab-14 (light chain) against a SARS-CoV-2 spike peptide

The target is the same throughout: PDVDLGDISGINAS, from the HR2 region of SARS-CoV-2 spike.

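These sequences belong to a second round, designed from the earlier measurements on random variants of the parent. Their group label is 14L_GP_Gibbs (GP: Gaussian process model; Gibbs: Gibbs sampling; a sequence that several methods proposed may carry one label only). The assay is AlphaSeq: two haploid yeast populations carry antibody and antigen on their surface. After mating in shaken culture at 30 °C for 16 h, diploids were selected and their barcode pairs sequenced. Scores were corrected for input abundance and mapped to Kd with protein pairs of known affinity run in the same pool. The assay was run in six technical replicates.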

Parent: Ab-14, a human scFv built as VH, three GGGGS repeats, VL. Only the CDRs of the light chain vary.
VH: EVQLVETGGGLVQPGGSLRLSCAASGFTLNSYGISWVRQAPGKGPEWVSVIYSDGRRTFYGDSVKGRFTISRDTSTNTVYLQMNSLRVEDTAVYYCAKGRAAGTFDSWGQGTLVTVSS
VL: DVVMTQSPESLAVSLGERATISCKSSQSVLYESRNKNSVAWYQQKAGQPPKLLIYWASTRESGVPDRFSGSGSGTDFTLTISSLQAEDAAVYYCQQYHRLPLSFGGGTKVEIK

Positions count from residue 1 of the parent VL; S28Q puts Q in place of S. Values are log10 of the apparent Kd in nM; lower means stronger binding. Replicates are averaged; those with no signal do not enter the mean. "ND" marks a missing value. The strain was present, yet no cells mated with the target were sequenced in that replicate, which points to weak or no binding. In the paper, a design with two or fewer of six values counts as a poor binder.

changes | replicates, log10 nM | log10 Kd (nM), mean | signal with controls
S28Q+Y31G+K36M+W56N+S62A | -0.10 / -0.14 / -0.09 / -0.20 / 0.05 / 0.12 | -0.06 | 0/18
S25M+Q27G+L30M+Y31M+E32L+K36V+W56Q+S62Q | 0.16 / -0.11 / -0.40 / -0.19 / 0.01 / -0.02 | -0.09 | 0/18
S25V+S28L+V29G+E32G+W56E | 0.38 / 0.26 / 0.53 / 0.12 / 0.29 / 0.66 | 0.37 | 0/18
K24V+S25L+S26Q+S28L+V29G+S33P+W56S+E61C | 0.47 / 0.59 / 0.89 / 0.77 / 0.48 / 0.85 | 0.67 | 1/18 (3.68)
L30Y+S33D+R34G+K36G+W56H+T59V+S62D+S103M | 0.12 / -0.33 / -0.06 / -0.38 / -0.08 / -0.01 | -0.12 | 1/18 (2.60)
S25L+S26Q+V29M+E32M+S33D+K36A+S38N+W56N | -0.28 / -0.45 / -0.49 / -0.61 / -0.61 / -0.40 | -0.47 | 1/18 (1.75)
K24W+S25L+Q27M+L30M+Y31L+K36V+W56S+S62W | ND / 1.19 / 1.86 / ND / ND / 4.14 | 2.40 | 1/18 (2.04)
S25V+S26K+V29W+K36S+S38N+W56N+T59K | -0.22 / -0.56 / -0.59 / -0.32 / -0.20 / -0.40 | -0.38 | 0/18
S25I+S26D+L30E+N35D+W56N+E61C+S62Q | 0.89 / 0.60 / 0.45 / 0.51 / 0.56 / 0.90 | 0.65 | 3/18 (2.16)
S25L+V29Y+L30E+K36S+W56N+T59Q+S62H+S103R | 0.73 / 0.84 / 0.46 / 0.64 / 0.76 / 0.78 | 0.70 | 0/18
S25L+Q27W+Y31G+E32M+S33E+N35A+W56N | 0.43 / 0.26 / 0.05 / 0.07 / 0.32 / 0.26 | 0.23 | 1/18 (3.20)
K24S+S25L+S26Q+V29W+L30G+E32Q+W56N+S62W | 0.45 / 0.52 / 0.32 / 0.41 / 0.48 / 0.68 | 0.48 | 1/18 (3.54)
S25W+L30D+Y31L+K36D+W56A+T59C+S62D | 1.28 / 0.77 / 1.03 / 0.83 / 0.74 / 1.11 | 0.96 | 2/18 (3.48)
K24V+S25L+S26Q+L30C+W56N+T59K+S62E | 0.51 / -0.05 / 0.18 / -0.21 / 0.22 / 0.17 | 0.14 | 1/18 (2.92)
S25L+S26Q+V29M+N35W+K36W+W56D+T59V+S62D | 0.18 / 0.05 / -0.13 / 0.05 / -0.08 / 0.16 | 0.04 | 2/18 (2.52)
S25V+S26Q+V29E+Y31G+E32L+W56E+T59K+S62D | -0.15 / -0.26 / -0.23 / -0.45 / -0.21 / -0.27 | -0.26 | 4/18 (2.80)
S25F+S26Q+L30G+E32Q+S33T+K36P+W56E+T59Q | -0.02 / -0.06 / -0.22 / -0.27 / -0.12 / -0.02 | -0.12 | 0/18
S25Q+S26Q+Q27I+L30D+Y31Q+N35Q+W56N+T59Q+S62E | 0.14 / 0.45 / 0.20 / 0.14 / 0.17 / 0.40 | 0.25 | 4/18 (3.38)
S25W+L30E+S33Q+N35D+W56N+E61C+S62Q | 0.15 / 0.19 / 1.47 / 0.90 / 0.65 / 0.95 | 0.72 | 0/18
S25M+S26Q+S28L+V29K+L30W+S33Q+W56D+A57G | 0.33 / 0.34 / 0.24 / 0.12 / 0.11 / 0.02 | 0.19 | 0/18
S25L+Q27N+V29N+K36G+W56N+E61Y+S62H | 0.79 / 0.57 / 1.07 / 0.85 / 0.87 / 0.83 | 0.83 | 0/18
S25F+S26P+L30G+E32Q+W56D | 0.38 / -0.15 / 0.68 / 0.53 / 0.15 / 0.17 | 0.29 | 0/18
S25L+S28M+V29D+N35M+K36S+W56M+E61M+S62V | -0.42 / -0.22 / -0.35 / -0.29 / -0.37 / -0.32 | -0.33 | 0/18
S25L+V29Q+W56E+T59H+S62H | 0.10 / -0.08 / 0.10 / -0.16 / 0.04 / 0.24 | 0.04 | 0/18
S25I+S28Q+Y31G+K36M+W56N+S62A | 0.50 / 0.42 / 0.39 / 0.31 / 0.47 / 0.65 | 0.46 | 1/18 (4.62)
S25M+V29N+L30P+Y31M+K36W+W56N+T59K | 0.52 / 0.02 / 0.21 / 0.07 / 0.21 / 0.34 | 0.23 | 0/18
S25L+S26E+Q27G+V29H+E32M+K36A+W56N+E61M | -0.30 / -0.41 / -0.52 / -0.54 / -0.39 / -0.28 | -0.41 | 1/18 (2.18)
S25L+S26Q+S28G+V29M+L30D+K36D+W56E+S103F | 0.08 / 0.09 / 0.21 / -0.01 / 0.18 / 0.22 | 0.13 | 0/18
S25Q+S26D+Q27F+V29C+L30P+Y31G+S33Q+W56S+E61M | 0.27 / 0.02 / 0.10 / 0.05 / 0.05 / 0.76 | 0.21 | 0/18
S25W+Q27C+V29Q+E32D+R34P+S62M | ND / ND / ND / 1.29 / ND / ND | 1.29 | 1/18 (0.30)
S25L+S26Q+S28W+V29D+W56Q+T59E+Q96C | ND / ND / ND / ND / ND / ND | ND | 0/18
S25F+S26M+V29W+R34L+W56N+T59Q+S62H | 0.45 / 0.00 / 0.11 / 0.05 / 0.08 / 0.30 | 0.16 | 2/18 (2.49)
S25I+S26H+V29D+S33D+K36I+W56S+T59Q+E61S | 0.36 / 0.21 / 0.30 / 0.65 / 0.22 / 0.35 | 0.35 | 1/18 (1.30)
S25Y+S26D+Q27F+Y31E+K36S+W56N+S62E+Q96D | 0.25 / 0.33 / 0.17 / 0.16 / 0.11 / 0.66 | 0.28 | 0/18
S25L+Q27N+V29Y+L30E+R34N+K36S+W56N+T59Q+S62H+S103R | 0.95 / 0.67 / 0.81 / 0.67 / 0.93 / 0.87 | 0.82 | 2/18 (2.62)
S25H+S26E+Q27E+S28L+L30E+W56N+E61L | -0.37 / -0.40 / -0.53 / -0.47 / -0.37 / -0.21 | -0.39 | 2/18 (2.65)
K24Y+S25L+W56N+S62M+S103Q | 0.62 / 0.71 / 0.21 / 0.76 / 0.29 / 0.26 | 0.47 | 0/18
Q27G+V29Q+K36S+W56H+S62L+Q96D | 0.80 / 0.33 / 0.73 / 0.82 / 1.07 / 0.34 | 0.68 | 0/18
S25V+Q27P+S28E+V29M+L30E+N37A+W56H | 0.15 / -0.02 / -0.13 / -0.29 / -0.01 / -0.02 | -0.05 | 2/18 (1.86)
S25L+S26M+Q27T+V29D+K36V+S38A+W56E+E61M+S62D | 0.80 / 0.58 / 0.47 / 0.40 / 0.73 / 0.67 | 0.61 | 0/18
V29W+Y31G+E32M+S33D+R34G+W56Q+T59Q+E61M | 0.29 / -0.01 / 0.03 / -0.06 / 0.01 / 0.23 | 0.08 | 1/18 (2.64)
S25A+S26A+V29W+L30G+N37W+W56N+S62K | 0.72 / 0.20 / 0.20 / 0.46 / 0.06 / 0.41 | 0.34 | 1/18 (1.85)
S25F+V29D+L30D+S33D+W56S+A57G+E61S | 0.41 / 0.19 / 0.31 / 0.07 / 0.14 / 0.37 | 0.25 | 1/18 (2.29)
K24M+S25L+L30G+Y31G+W56E+S58Q+S62Q | -0.04 / -0.24 / -0.43 / -0.10 / -0.35 / 0.02 | -0.19 | 1/18 (2.64)
S25L+Q27M+S28L+V29H+L30W+E32W+W56E+E61L+S62Q | 0.95 / 0.88 / 0.90 / 1.07 / 1.02 / 0.95 | 0.96 | 0/18
S25I+S28L+V29N+W56N+S58N | 0.44 / 0.49 / -0.23 / 0.36 / 0.45 / 0.29 | 0.30 | 0/18
S25L+S26Q+V29W+L30G+E32Q+W56N+S62W | 1.63 / 1.28 / 1.19 / 0.96 / 1.37 / 1.10 | 1.25 | 0/18
S25L+Q27M+S28M+V29D+N35M+K36S+W56M+S62K | 0.92 / 0.61 / 1.19 / 0.85 / 0.76 / 1.43 | 0.96 | 0/18
Q27P+V29Q+S33D+N35E+K36F+W56N+T59Q | 0.29 / 0.39 / 0.26 / 0.04 / 0.52 / 0.20 | 0.28 | 1/18 (1.87)
S25M+S26Q+Q27G+L30M+Y31M+E32L+K36V+W56Q+S62Q | 0.37 / 0.35 / 0.47 / 0.31 / 0.37 / 0.10 | 0.33 | 1/18 (2.20)

As a blank, each scFv also met three strains without target: over all light chain designs, 4% of these pairings were detected, typically at 2.64 and seldom below 1.59. Also given: how often the same scFv was detected with the empty control strains, with their mean in brackets. The range of this assay differs from that of the first round, and the authors advise against merging the two.

Source: Li et al. 2023 (doi:10.1038/s41467-023-39022-2), MIT Lincoln Laboratory and A-Alpha Bio; data file from the FLAb repository.